Measurements taken from patent publication US12240857B2 (priority 2017, dated 2025).

Assay: in vitro
Details: African green monkey

N[C@H]1CC[C@H](NC(=O)C23CC4CC(CO)(C2)CC(c2ccccc2)(C4)C3)CC1 (stereo partly drawn) [Example A116, trans-N-(4-aminocyclohexyl)-3-(hydroxymethyl)-5-phenyladamantane-1-carboxamide] gave a CC50 greater than 100 µM.
